Values quoted from earlier work, collected in US7267813B2 (Orion Corporation, priority 2000, dated 2007).

Substance: Formoterol fumarate
- solubility in ethanol (solvent ethanol): sparingly soluble
- solubility in glacial acetic acid (solvent glacial acetic acid): freely soluble
- solubility in methanol (solvent methanol): soluble
